Molecules are shown by their SMILES.

For one test, the species on record is Oryctolagus cuniculus. Description: Tested in rabbit for percentage analgesia after treatment with morphine.
The species entered for a further test is Mus musculus. Description: Ability of compound for reversal of morphine and analgesia was determined; 2= reversal of both morphine respiratory depression and analgesia.

As for `C=CCN1CC[C@]23c4c5ccc(O)c4O[C@H]2C(=O)CC[C@@]3(O)[C@H]1C5`, the Reversal in the test listed under Oryctolagus cuniculus worked out at 50%. For the same compound, the Reversal type in the test listed under Mus musculus worked out at 2.
